From ChEMBL document CHEMBL1124862 (J Med Chem, 1990) come the findings set out here.

Chains of the proteins cited; added tags and fusions are not shown.
UniProt P19327, whole entry: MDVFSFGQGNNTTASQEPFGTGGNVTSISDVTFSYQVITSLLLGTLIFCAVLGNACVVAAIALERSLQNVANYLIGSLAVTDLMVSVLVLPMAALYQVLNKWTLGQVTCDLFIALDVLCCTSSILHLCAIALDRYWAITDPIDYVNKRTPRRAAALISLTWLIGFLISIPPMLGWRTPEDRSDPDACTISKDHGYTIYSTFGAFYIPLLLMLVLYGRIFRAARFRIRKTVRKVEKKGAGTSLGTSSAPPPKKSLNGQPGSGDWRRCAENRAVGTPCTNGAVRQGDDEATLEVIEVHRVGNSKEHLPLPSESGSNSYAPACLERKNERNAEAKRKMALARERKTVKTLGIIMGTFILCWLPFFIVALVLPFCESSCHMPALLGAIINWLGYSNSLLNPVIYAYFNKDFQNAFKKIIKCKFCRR

The target in this assay is 5-hydroxytryptamine receptor 1A (Rattus norvegicus, UniProt P19327). As to the kind of experiment: Displacement of [3H]8-OH-DPAT from rat cortex 5-hydroxytryptamine 1A receptor. The gist of the method: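 Competition binding in rat cortex membranes, using the radioligand named in each line at a concentration of approximately its K_D.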
In general terms: Loss of bound radioactivity is the signal in a displacement assay; it reports binding, not function.

What is called IC50 is the midpoint of a concentration-inhibition curve. In turn, `COc1ccc2[nH]cc(C3=CCNCC3)c2c1` [RU-24969] had an IC50 of 14 nM.
